For assay [1], the system named is Chlamydia trachomatis. In words: Binding affinity to C-terminal 6His-tagged Chlamydia trachomatis DUB1 (130 to 401 residues) expressed in Escherichia coli Rosetta 2 (DE3) cells using Ub-Rh110Gly as fluorogenic substrate assessed as ratio of Kinact/Ki preincubated for 60 mins followed by substrate addition measured after 360 mins by plate reader analysis. Particulars: time 420.0 min.

The test system of assay [2] is Chlamydia trachomatis. In words: Binding affinity to C-terminal 6His-tagged Chlamydia trachomatis DUB1 (130 to 401 residues) expressed in Escherichia coli Rosetta 2 (DE3) cells using Ub-Rh110Gly as fluorogenic substrate assessed as Kinact preincubated for 60 mins followed by substrate addition measured after 360 mins by plate reader analysis. Particulars: time 420.0 min.

`N#Cc1ncc(C(=O)NCc2ccc(C(=O)NCc3ccccc3)cc2)cn1`: in the assay on Chlamydia trachomatis [1], the Ratio was determined as 14.6 M⁻¹ s⁻¹. Moreover, the Kinact with Chlamydia trachomatis [2] stood at 0.198 min⁻¹.

Turning to `N#Cc1ncc(C(=O)NCc2ccc(C(=O)NC34CC5CC(CC(C5)C3)C4)cc2)cn1`, in the assay on Chlamydia trachomatis [1], the Ratio worked out at 14.3 M⁻¹ s⁻¹. The Kinact in the assay on Chlamydia trachomatis [2] was 0.103 min⁻¹.

For the compound `COc1ccccc1CNC(=O)c1ccc(CNC(=O)c2cnc(C#N)nc2)cc1`, the Kinact in the assay on Chlamydia trachomatis [2] is 0.222 min⁻¹.

The record behind these values is ChEMBL document CHEMBL5576083, “Structure-Based Design and Synthesis of Covalent Inhibitors for Deubiquitinase and Acetyltransferase ChlaDUB1 of Chlamydia trachomatis” (J Med Chem, 2024).
